Source: patent US20110124666A1, “3,4-DIHYDROPYRIMIDINE TRPA1 ANTAGONISTS” (Janssen Pharmaceutica NV a corporation, priority 2008, published 2011)

The chains behind the UniProt entries cited, without tags or fusion partners.
UniProt O75762, whole entry: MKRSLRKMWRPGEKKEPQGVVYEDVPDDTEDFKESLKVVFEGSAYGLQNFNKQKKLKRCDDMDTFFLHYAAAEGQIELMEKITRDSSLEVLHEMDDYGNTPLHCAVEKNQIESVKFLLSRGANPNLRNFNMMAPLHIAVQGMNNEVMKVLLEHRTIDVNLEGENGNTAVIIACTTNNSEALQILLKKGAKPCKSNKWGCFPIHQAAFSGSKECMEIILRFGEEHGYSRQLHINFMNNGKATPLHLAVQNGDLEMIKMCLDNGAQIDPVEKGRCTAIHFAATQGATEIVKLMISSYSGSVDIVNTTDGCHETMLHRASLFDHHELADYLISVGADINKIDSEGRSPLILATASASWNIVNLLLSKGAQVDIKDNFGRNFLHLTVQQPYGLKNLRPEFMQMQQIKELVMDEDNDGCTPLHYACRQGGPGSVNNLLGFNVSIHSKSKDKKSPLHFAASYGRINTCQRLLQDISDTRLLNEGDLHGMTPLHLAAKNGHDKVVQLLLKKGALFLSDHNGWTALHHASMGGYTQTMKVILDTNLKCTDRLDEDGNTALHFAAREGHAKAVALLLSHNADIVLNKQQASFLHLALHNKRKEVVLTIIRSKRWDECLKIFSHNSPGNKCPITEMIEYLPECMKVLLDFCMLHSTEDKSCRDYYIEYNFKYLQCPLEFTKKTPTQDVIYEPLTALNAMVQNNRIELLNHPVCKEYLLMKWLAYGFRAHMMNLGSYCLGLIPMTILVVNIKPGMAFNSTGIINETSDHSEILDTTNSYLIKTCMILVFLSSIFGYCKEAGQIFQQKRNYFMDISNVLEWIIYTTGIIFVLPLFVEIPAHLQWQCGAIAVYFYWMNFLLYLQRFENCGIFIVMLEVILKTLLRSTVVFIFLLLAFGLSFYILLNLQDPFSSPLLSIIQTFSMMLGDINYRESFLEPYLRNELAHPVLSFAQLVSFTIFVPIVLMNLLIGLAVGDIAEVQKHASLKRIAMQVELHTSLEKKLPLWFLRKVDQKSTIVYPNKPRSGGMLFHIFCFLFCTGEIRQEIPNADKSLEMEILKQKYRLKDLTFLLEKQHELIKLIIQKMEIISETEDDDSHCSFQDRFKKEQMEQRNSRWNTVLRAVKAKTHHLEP

Molecular target: hTRPA1 (Homo sapiens, UniProt O75762)
Assay: Ca2+ fluorometry TRPA1 antagonism in hTRPA1/TREx-HEK293 cells (FDSS)
Details: read-out: IC50 hTRPA1, 11H-dibenzo[b,e]azepine-10-carboxylic acid methyl ester as TRPA1 agonist (25 nM), hTRPA1-HEK cells, Fluo4-AM

IC50: 1460 nM
Compound: COc1ccc(Oc2cccc(C3NC(=S)NC4=C3C(=O)c3ccccc34)c2)cc1 (stereo not shown) [Co. No. 20]
